Results taken from ChEMBL document CHEMBL1153377, “8-Bromo-9-alkyl adenine derivatives as tools for developing new adenosine A2A and A2B receptors ligands” (Bioorg Med Chem, 2009).

Biological target: Adenosine receptor A2a (Homo sapiens, UniProt P29274)
Test: Displacement of [3H]NECA from human adenosine A2A receptor expressed in CHO cells
Type: cell-based
Summary of the method: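 CHO cells stably expressing human receptor; membranes from a two-step spin (1000 g, then 100,000 g), resuspended in binding buffer, stored -80 °C. Competition with [3H]NECA at 30 nM (A2A) or 10 nM (A3); nonspecific binding defined with […]. Ki derived from competition experiments.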

Cn1cnc2c(N)ncnc21
Ki: 6.9 µM
